In US11357857B2, “Excipient compounds for protein processing” (COMERA LIFE SCIENCES, INC., priority 2014, dated 2022):

Test system: bovine gamma globulin (BGG)
Assay: Viscosity of 280 mg/mL BGG formulations in 50 mM histidine HCl pH 6 with excipient, cone and plate viscometer (Examples 1, 2, 4-6)
Format: physicochemical

Sodium hydroxybenzoate
Viscosity: 50 cP | Viscosity Reduction: 37%
